Experimental findings from patent publication US8664225B2, “1-[2-(2,4-dimethylphenylsulfanyl)-phenyl] piperazine as a compound with combined serotonin reuptake, 5-HT3 and 5-HT1A activity for the treatment of pain or residual symptoms in depression relating to sleep and cognition” (H. Lundbeck A/S, priority 2007, dated 2014) are described below.

The data set can be described thus: Solubility in water.

“1-[2-(2,4-Dimethylphenylsulfanyl)-phenyl]piperazine meso-tartaric acid [meso-tartrate]”: the solubility in water was approximately 0.7 mg/mL.
